The record followed here is patent US5866346A (priority 1997, dated 1999).

Protein sequences, listed by entry. Tags and fused reporters are not part of them. Lines headed by an entry give the natural chain unless they say otherwise; changes in a name come on top.
UniProt P35370: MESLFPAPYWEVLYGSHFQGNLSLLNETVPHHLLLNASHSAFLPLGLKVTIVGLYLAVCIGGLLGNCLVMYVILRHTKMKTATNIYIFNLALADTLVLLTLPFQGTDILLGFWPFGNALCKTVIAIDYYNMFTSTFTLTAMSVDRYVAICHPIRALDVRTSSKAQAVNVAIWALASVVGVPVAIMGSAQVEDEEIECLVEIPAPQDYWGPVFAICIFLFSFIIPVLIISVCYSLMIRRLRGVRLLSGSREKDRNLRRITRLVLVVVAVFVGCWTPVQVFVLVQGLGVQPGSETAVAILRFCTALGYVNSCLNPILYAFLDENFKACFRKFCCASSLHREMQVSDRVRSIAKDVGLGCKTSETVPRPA

The test has as its target XOR1 (opioid receptor-like orphan receptor) (Rattus norvegicus, UniProt P35370). The following applies: for EC50: read-out: EC50 of XOR1-mediated activation of the K+ channel (KGA).

By EC50 is commonly meant the concentration giving half of the maximal effect. `CC[C@H](C)[C@H](NC(=O)[C@H](CCCNC(=N)N)NC(=O)[C@H](CCCNC(=N)N)NC(=O)[C@H](CC(C)C)NC(=O)[C@H](Cc1ccccc1)NC(=O)CNC(=O)CNC(=O)[C@@H](N)Cc1ccc(O)cc1)C(=O)N[C@@H](CCCNC(=N)N)C(=O)N1CCC[C@H]1C(=O)N[C@@H](CCCCN)C(=O)N[C@@H](CC(C)C)C(=O)N[C@@H](CCCCN)C(=O)O` [dyn A-(1-13), dynorphin A (1-13)]: the “membrane currents evoked by endogenous opioid ligands (activation of XOR1)” value was “most potent ones” and the EC50 was 37 ± 9 nM.
For `CC[C@H](C)[C@H](NC(=O)[C@H](CCCNC(=N)N)NC(=O)[C@H](CCCNC(=N)N)NC(=O)[C@H](CC(C)C)NC(=O)[C@H](Cc1ccccc1)NC(=O)CNC(=O)CNC(=O)[C@@H](N)Cc1ccc(O)cc1)C(=O)N[C@@H](CCCNC(=N)N)C(=O)N1CCC[C@H]1C(=O)N[C@@H](CCCCN)C(=O)N[C@@H](CC(C)C)C(=O)N[C@@H](CCCCN)C(=O)N[C@@H](Cc1c[nH]c2ccccc12)C(=O)N[C@@H](CC(=O)O)C(=O)N[C@@H](CC(N)=O)C(=O)N[C@@H](CCC(N)=O)C(=O)O` [dyn A, dynorphin A] the same measures were “most potent ones” and 45 ± 6 nM.
